US20080318845A1, “Selective Vpac2 Receptor Peptide Agonists” (priority 2004, published 2008)

Sequences of proteins named here, by UniProt entry; tags and fusion partners are left off. Residues count along the entry.
UniProt P35000, 23-437: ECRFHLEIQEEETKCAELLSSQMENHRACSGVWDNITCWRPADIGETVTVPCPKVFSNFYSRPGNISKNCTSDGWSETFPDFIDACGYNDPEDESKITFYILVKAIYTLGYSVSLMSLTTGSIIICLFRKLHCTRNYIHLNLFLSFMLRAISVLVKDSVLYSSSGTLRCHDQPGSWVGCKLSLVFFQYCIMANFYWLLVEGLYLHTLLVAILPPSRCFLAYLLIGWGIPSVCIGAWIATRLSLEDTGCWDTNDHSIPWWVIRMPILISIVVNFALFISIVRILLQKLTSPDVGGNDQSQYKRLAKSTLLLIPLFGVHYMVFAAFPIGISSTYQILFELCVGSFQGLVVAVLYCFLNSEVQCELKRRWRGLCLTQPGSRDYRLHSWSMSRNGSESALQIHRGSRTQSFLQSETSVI

T1: human VPAC2 receptor (human, UniProt P41587 24-438)
T1 construct: whole, on cells; stably expressed in a CHO-S cell line
T1 sequence (looked up): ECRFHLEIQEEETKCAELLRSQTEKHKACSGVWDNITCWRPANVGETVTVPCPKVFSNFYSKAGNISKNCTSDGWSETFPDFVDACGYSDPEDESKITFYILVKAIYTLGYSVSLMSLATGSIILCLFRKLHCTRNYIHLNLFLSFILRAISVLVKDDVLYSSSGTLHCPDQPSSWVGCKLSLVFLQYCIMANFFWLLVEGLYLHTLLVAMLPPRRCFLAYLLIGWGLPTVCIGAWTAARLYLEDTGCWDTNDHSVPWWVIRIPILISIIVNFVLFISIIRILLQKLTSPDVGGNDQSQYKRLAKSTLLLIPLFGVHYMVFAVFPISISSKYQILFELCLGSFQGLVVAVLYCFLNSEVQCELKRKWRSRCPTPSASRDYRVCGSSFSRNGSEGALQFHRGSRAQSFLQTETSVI

B1: pituitary adenylate cyclase-activating polypeptide PACAP-27 (peptide)
peptide: HSDGIFTDSYSRYRKQMAVKKYLAAVL
modifications: C-terminal amide (-NH2)
notes: 27 amino acid peptide with amidated carboxyl

Assays:
rat VPAC2 receptor (rat) = rat VPAC2 receptor (rat) (UniProt P35000); experiment: cell-based or functional assay
human VPAC2 receptor = target: T1, human VPAC2 receptor; experiment: filter binding on membranes, displacement of 125I-VIP

EC50, cAMP generation (DiscoveRx) (rat VPAC2 receptor (rat))	IC50 (human VPAC2 receptor)	Molecule
0.79 nM	–	vasoactive intestinal peptide (VIP)
–	2.52 nM	B1
